The source of these data is patent publication US6555570B2, “Compounds with growth hormone releasing properties” (Novo Nordisk A/S, priority 1995, dated 2003).

Each structure is given as a SMILES string.

For one series, the system named is carboxypeptidase Y and B. Description: Metabolic stability in carboxypeptidase mix (ESMS, selected ion monitoring). The settings on record: carboxypeptidase Y and B in 50 mM ammoniumacetate pH 4.5; 37° C., 24 h in degradation solution; decrease in SIM signal vs zero-sample.
Series [1] concerns trypsin, chymotrypsin and elastase. Description: Metabolic stability in pancreatic enzyme mix (ESMS, selected ion monitoring). The settings on record: chymotrypsin and elastase in 100 mM ammoniumbicarbonate pH 8.0, 37° C., 24 h in degradation solution, decrease in SIM signal vs zero-sample.

For `CSCC[C@H](NC(=O)[C@H](CC(C)C)NC(=O)[C@H](Cc1c[nH]c2ccccc12)NC(=O)[C@H](CCC(N)=O)NC(=O)[C@@H](NC(=O)[C@H](Cc1ccccc1)NC(=O)[C@H](CC(=O)O)NC(=O)[C@H](CCC(N)=O)NC(=O)[C@H](C)NC(=O)[C@H](CCCN=C(N)N)NC(=O)[C@H](CCCN=C(N)N)NC(=O)[C@H](CO)NC(=O)[C@H](CC(=O)O)NC(=O)[C@H](CC(C)C)NC(=O)[C@H](Cc1ccc(O)cc1)NC(=O)[C@H](CCCCN)NC(=O)[C@H](CO)NC(=O)[C@H](Cc1ccc(O)cc1)NC(=O)[C@H](CC(=O)O)NC(=O)[C@H](CO)NC(=O)[C@@H](NC(=O)[C@H](Cc1ccccc1)NC(=O)[C@@H](NC(=O)CNC(=O)[C@H](CCC(N)=O)NC(=O)[C@H](CO)NC(=O)[C@@H](N)Cc1c[nH]cn1)[C@@H](C)O)[C@@H](C)O)C(C)C)C(=O)N[C@@H](CC(N)=O)C(=O)N[C@H](C(=O)O)[C@@H](C)O` [Glucagon], the Carboxypeptidase mix entry with carboxypeptidase Y and B is “− (Unstable (more than 20% decrease in SIM signal after 24 h in degradation solution))”. In series [1], the Pan. enzyme mix entry is “− (Unstable (more than 20% decrease in SIM signal after 24 h in degradation solution))”.
